Amino acid sequences for entries named in this document (tags omitted). Residues count along the entry.
UniProt P29317, 24-976, species assumed: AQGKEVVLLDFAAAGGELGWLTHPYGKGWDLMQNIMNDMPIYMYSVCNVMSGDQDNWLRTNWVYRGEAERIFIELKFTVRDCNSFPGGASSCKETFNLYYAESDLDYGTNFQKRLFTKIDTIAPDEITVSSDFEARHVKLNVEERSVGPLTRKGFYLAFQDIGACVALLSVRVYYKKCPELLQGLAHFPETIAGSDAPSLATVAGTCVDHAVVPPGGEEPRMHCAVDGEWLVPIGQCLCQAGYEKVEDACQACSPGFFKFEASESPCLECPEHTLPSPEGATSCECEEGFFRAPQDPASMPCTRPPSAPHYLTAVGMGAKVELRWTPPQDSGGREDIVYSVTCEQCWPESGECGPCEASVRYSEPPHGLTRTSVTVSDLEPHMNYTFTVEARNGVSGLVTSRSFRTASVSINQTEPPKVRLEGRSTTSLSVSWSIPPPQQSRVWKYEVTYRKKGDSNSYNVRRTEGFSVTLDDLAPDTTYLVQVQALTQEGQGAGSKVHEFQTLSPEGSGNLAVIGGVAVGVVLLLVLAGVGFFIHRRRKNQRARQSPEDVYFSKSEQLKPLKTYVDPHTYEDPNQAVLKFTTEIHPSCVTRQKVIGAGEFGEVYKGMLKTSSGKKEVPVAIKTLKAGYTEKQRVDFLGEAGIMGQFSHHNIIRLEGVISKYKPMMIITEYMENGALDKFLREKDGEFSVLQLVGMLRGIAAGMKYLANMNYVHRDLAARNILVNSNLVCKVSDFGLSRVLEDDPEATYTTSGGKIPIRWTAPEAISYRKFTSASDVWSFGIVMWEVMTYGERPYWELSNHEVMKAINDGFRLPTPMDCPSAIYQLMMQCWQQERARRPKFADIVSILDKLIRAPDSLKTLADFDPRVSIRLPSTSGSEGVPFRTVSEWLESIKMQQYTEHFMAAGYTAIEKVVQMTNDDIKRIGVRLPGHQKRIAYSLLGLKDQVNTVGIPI

In patent publication EP0973746B1, “SUBSTITUTED 3-CYANO QUINOLINES” (Wyeth Holdings Corporation, priority 1997, dated 1998):

What follows are compounds tested against Epithelial Cell Kinase (ECK) (Homo sapiens, UniProt P29317) (assay: biochemical). Conditions: Eck IC50.

Compound | IC50 [µM]
COc1cc2ncc(C#N)c(Nc3ccc(Cl)cc3F)c2cc1OCCCN1CCOCC1 [Example 127] | > 42.5
COc1cc2ncc(C#N)c(Nc3cccc(Br)c3)c2cc1OCCCN1CCOCC1 [Example 126] | < 0.0402

Same assay, conditions: Eck IC50, pH 7.2; nonradioactive format

Compound | IC50 [µM]
N#Cc1cnc2cc(O)ccc2c1Nc1ccc(Cl)cc1F [Example 308, 4-(4-Chloro-2-fluorophenylamino)-7-hydroxy-3-quinolinecarbonitrile] | > 63.8
COc1cc2ncc(C#N)c(Nc3ccc(F)cc3)c2cc1OC [Example 46, 4-((4-Fluorophenyl)amino]-6,7-dimethoxy-3-quinolinecarbonitrile] | > 61.9
CC(=O)Nc1cc(CN(C)C)c2ncc(C#N)c(Nc3cccc(Br)c3)c2c1 [Example 112, N-{4-[(3-Bromophenyl)amino]-3-cyano-8-dimethylaminomethyl-6-quinolinyl} acetamide] | > 22.8
Cc1cccc(Nc2c(C#N)cnc3ccc(N)cc23)c1 [Example 133, 6-Amino-4-[(3-methylphenyl)amino]-3-quinolinecarbonitrile] | > 72.9
CN(C)Cc1cc(N)cc2c(Nc3cccc(Br)c3)c(C#N)cnc12 [Example 109, 6-Amino-4-[(3-bromophenyl)amino]-8-dimethylaminomethyl-3-quinolinecarbonitrile] | > 25.2
COc1cc2ncc(C#N)c(Nc3cccc([N+](=O)[O-])c3)c2cc1OC [Example 89, 6.7-Dimethoxy-4-(3-nitrophenylamino)quinoline-3-carbonitrile] | > 28.6
COc1cc2c(Nc3ccc(C)c(O)c3)c(C#N)cnc2cc1OCCN1CCOCC1 [Example 83, 4-(3-Hydroxy-4-methyl-phenylamino)-6-methoxy-7-(2-morpholin-4-yl-ethoxy)-quinoline-3-carbonitrile] | > 46
COc1ccc(OC)c2c(Nc3ccc(C)c(O)c3)c(C#N)cnc12 [Example 239, 4-(3-Hydroxy-4-methyl-phenylamino)-5,8-dimethoxy-quinoline-3-carbonitrile] | > 29.8
C=CC(=O)Nc1ccc2ncc(C#N)c(Nc3cccc(Cl)c3)c2c1 [Example 135, N-4-[(3-Chlorophenyl)amino]-3-cyano-6-guinolinyl-2-propenarnide] | > 57.3
Cc1cc([N+](=O)[O-])cc2c(Nc3cccc(Br)c3)c(C#N)cnc12 [Example 105, 4-[(3-Bromophenyl)amino]-8-methyl-6-nitro-3-quinolinecarbonitrile] | > 26.1
CCOc1cc2ncc(C#N)c(Nc3ccccc3)c2cc1OCC [Example 259, 4-(Phenylamino)-6,7-diethoxy-3-quinolinecarbonitrile] | > 30
COc1cc2ncc(C#N)c(Oc3cccc(Br)c3)c2cc1OC [Example 49, 4-(3-Bromophenoxy)-6,7-dimethoxy-3-quinolinecarbonitrile] | > 51.9
COc1cc2ncc(C#N)c(Nc3cc(Br)c(O)c(Br)c3)c2cc1OC [Example 291, 4-(3,5-Dibromo-4-hydroxy-phenylamino)-6,7-dimethoxy-quinoline-3-carbonitrile] | > 20.9
CCOc1cc2ncc(C#N)c(N(C)c3ccccc3)c2cc1OCC [Example 258, 4-(N-Methylphenylamino)-6,7-diethoxy-3-quinolinecarbonitrile] | > 28.8
N#Cc1cnc2ccc(N)cc2c1Nc1ccc(F)c(F)c1 [Example 155, 6-Amino-4-[(3.4-difluorophenyl)amino]-3-quinolinecarbonitrile] | > 67.5
CC#CC(=O)Nc1cc(CN(C)C)c2ncc(C#N)c(Nc3cccc(Br)c3)c2c1 [Example 110, N-{4-[(3-Bromophenyl)amino]-3-cyano-8-dimethylaminomethyl-6-quinolinyl} -2-butynamide] | > 43.3
N#Cc1cnc2ccc(N)cc2c1Nc1ccc(Sc2ccccc2)c(Cl)c1 [Example 158, 6-Amino-4-[(3-chloro-4-thiophenoxyphenyl)amino]-3-quinolinecarbonitrile] | > 49.6
COc1cc2ncc(C#N)c(Nc3cccc(CSC(C)=O)c3)c2cc1OC [Example 269, 4-[3-(Acetylthiomethyl)phenylamino]-6,7-dimethoxy-3-quinolinecarbonitrile] | > 50.8
CCOc1cc2ncc(C#N)c(Nc3ccc(Sc4ccccc4)c(Cl)c3)c2cc1OCC [Example 254, 4-[3-Chloro-4-(phenylthio)phenylamino]-6,7-diethoxy-3-quinolinecarbonitrile] | > 21
N#Cc1cnc2ccc([N+](=O)[O-])cc2c1Nc1ccc(Br)cc1 [Example 153, 4-[(4-Bromophenyl)amino]-6-nitro-3-quinolinecarbonitrile] | > 27.1
COc1cc2ncc(C#N)c(Nc3cccc(Br)c3)c2cc1NC(=O)C#CCN(C)C [Example 227, 4-Dimethylamino-but-2-ynoic acid [4-(3-bromo-phenylamino)-3-cyano-7-methoxy-quinol-6-yl]-amide] | > 41.8
COc1ccc(OC)c2c(Nc3cccc(Br)c3)c(C#N)cnc12 [Example 240, 4-(3-Bromo-phenylamino)-5.8-dimethoxy-quinoline-3-carbonitrile] | > 26

Compound | IC50 [µM]
COc1cc2ncc(C#N)c(Nc3cccc(C#N)c3)c2cc1OC [Example 45, 4-[(3-Cyanophenyl)amino]-6,7-dimethoxy-3-quinolinecarbonitrile] | > 60.5
COc1cccc2c(Nc3cccc(N(C)C)c3)c(C#N)cnc12 [Example 277, 4-(3-Dimethylamino-phenylamino)-8-methoxy-quinoline-3-carbonitrile] | > 62.8
COc1ccc(OC)c2c(Nc3cc(O)c(Cl)cc3F)c(C#N)cnc12 [Example 243, 4-(4-Chloro-2-fluoro-5-hydroxy-phenylamino)-5,8-dimethoxy-quinoline-3-carbonitrile] | > 26.8
COc1cccc2c(Nc3ccc(Br)c(O)c3)c(C#N)cnc12 [Example 278, 4-(4-Bromo-3-hydroxy-phenylamino)-8-methoxy-quinoline-3-carbonitrile] | > 54
CC#CC(=O)Nc1cc2c(Nc3cccc(Br)c3)c(C#N)cnc2cc1OC [Example 8, N-[4-[(3-Bromophenyl)amino]-3-cyano-7-methoxy-6-guinolinyl]-2-butynamide] | < 0.0459
CCN(CC)CC=CC(=O)Nc1cc2c(Nc3ccc(F)c(Br)c3)c(C#N)cnc2cc1OC [Example 209, 4-Diethylamino-but-2-enoic acid [4-(3-bromo-4-fluorophenylamino)-3-cyano-7-methoxy-quinolin-6-yl]-amide] | > 38
C=C(CC(=O)Nc1ccc2ncc(C#N)c(Nc3cccc(Br)c3)c2c1)C(=O)O [Example 186, 4-[[4-[(3-Bromophenyl)amino]-3-cyano-6-quinolinyl]-amino]-2-methylene-4-oxo-butanoic acid] | > 22.2
COc1ccc(Nc2c(C#N)cnc3c(OC)cccc23)cc1O [Example 279, 4-(3-Hydroxy-4-methoxy-phenylamino)-8-methoxy-quinoline-3-carbonitrile] | > 62.2
N#Cc1cnc2ccc(N)cc2c1Nc1ccc(Br)cc1 [Example 152, 6-Amino-4-[(4-bromophenyl)amino]-3-quinolinecarbonitrile] | > 29.5
CC#CC(=O)Nc1ccc2ncc(C#N)c(Nc3cccc(Br)c3)c2c1 [Example 15, N-[4-[(3-Bromophenyl)amino]-3-cyano-6-quinolinyl]-2-butynamide] | < 0.0494
COc1cc2ncc(C#N)c(Nc3ccc(Cl)cc3F)c2cc1OC [Example 228, 4-(4-Chloro-2-fluoro-phenylamino)-6,7-dimethoxy-quinoline-3-carbonitrile] | > 55.9
CCOc1cc2c(Nc3ccc(C)c(O)c3)c(C#N)cnc2cc1OC [Example 97, 6-Ethoxy-4-(3-hydroxy-4-methylphenylamino)-7-methoxyquinoline-3-carbonitrile] | > 28.7
N#Cc1cnc2ccc([N+](=O)[O-])cc2c1Nc1ccc(F)c(Cl)c1 [Example 150, 4-[(3-chloro-4-fluorophenyl)amino]-6-nitro-3-quinolinecarbonitrile] | > 29.2
C=CC(=O)Nc1ccc2ncc(C#N)c(Nc3cccc(C#N)c3)c2c1 [Example 160, N-[3-Cyano-4-[(3-cyanophenyl)amino]-6-quinolinyl}-2-propenamide] | < 0.0589
COCCOc1cc2ncc(C#N)c(Nc3cccc(Br)c3)c2cc1OCCOC [Example 311, 4-[(3-Bromophenyl)amino]-6,7-bis(2-methoxyethoxy)-3-quinolinecarbonitrile] | > 21.2
COc1cc2c(Nc3cccc(N(C)C)c3)c(C#N)cnc2c(OC)c1OC [Example 232, 4-(3-Dimethylamino-phenylamino)-6.7.8-trimethoxy-quinoline-3-carbonitrile] | > 52.8
C=CC(=O)Nc1ccc2ncc(C#N)c(Nc3cccc(Br)c3)c2c1 [Example 18, N-[4-[(3-Bromophenyl)amino]-3-cyano-6-quinolinyl]-2-propenamide] | > 50.9
C=C(CN1CCOCC1)C(=O)Nc1ccc2ncc(C#N)c(Nc3cccc(Br)c3)c2c1 [Example 171, N-{4-[(3-Bromophenyl)amino]-3-cyano-6-quinolinyl}-2-morpholin-4-ylmethyl-2-propenamide] | > 40.6
COc1cc2c(Nc3cc(O)c(Cl)cc3F)c(C#N)cnc2cc1OCCN1CCOCC1 [Example 87, 4-(4-Chloro-2-fluoro-5-hydroxy-phenylamino)-6-methoxy-7-(2-morpholin-4-yl-ethoxy)-quinoline-3-carbonitrile] | > 42.3
N#Cc1cnc2ccc(N)cc2c1Nc1ccc(F)c(Cl)c1 [Example 149, 6-Amino-4-[(3-chloro-4-fluorophenyl)amino]-3-quinolinecarbonitrile] | > 64
COc1cccc(Nc2c(C#N)cnc3ccc(N)cc23)c1 [Example 141, 6-Amino-4-[(3-methoxyphenyl)amino]-3-quinolinecarbonitrile] | > 68.9
CCN1CCN(CC#CC(=O)Nc2ccc3ncc(C#N)c(Nc4cccc(Br)c4)c3c2)CC1 [Example 188, N-[4-[(3-Bromophenyl)amino]-3-cyano-6-quinolinyl]-4-(N-ethylpiperazino)-2-butynamide] | > 38.7

Same assay, conditions: read-out: Eck IC50; pH 7.2

Compound | IC50 [µM]
COc1cc2ncc(C#N)c(N(C)c3ccccc3)c2cc1OC [Example 44, 4-[(Methylphenyl)amino]-6,7-dimethoxy-3-quinolinecarbonitrile] | > 62.6
